Settings: oral dosing with human insulin alone (no delivery agent); previous experiments
Method: Oral dosing (PO) compositions of delivery agent compound and human zinc insulin (minimum 26 IU/mg available from Calbiochem—Novabiochem Corp, La Jolla, Calif.) were prepared in deionized water. […] The solution was vortexed, then heated (about 37° C.) and sonicated. The pH was adjusted to about 7 to 8.5 with NaOH or HCl. […] About 1.25 mg insulin from an insulin stock solution (15 mg/ml made from 0.5409 g insulin and 18 ml deionized water, adjusting with HCl and NaOH to pH 8.15 and to obtain a clear solution using 40 ml concentrated HCl, 25 ml 10N NaOH and 50 ml 1N NaOH) was added to the solution and mixed by inverting.
The typical dosing and sampling protocols were as follows. […] A dosing group of five animals was administered one of the dosing solutions. […] The syringe was filled with dosing solution by drawing the solution through the catheter, which was then wiped dry. The catheter was placed down the esophagus leaving 1 cm of tubing past the incisors. The dosing solution was administered by pressing the syringe plunger.
The five values for each time point were averaged and the results plotted as serum insulin concentration versus time.

For human insulin, the “Serum human insulin levels” value was “no measurable levels”.

From US9035085B2, “Aryl ketone compounds and compositions for delivering active agents” (EMISPHERE TECHNOLOGIES, INC., priority 2004, dated 2015)
